High-throughput results deposited in PubChem by Broad Institute.
PDI inh – blocks human protein disulfide isomerase activity. 350,000 tested, 0.052% active. PDI insulin aggregation turbidity, A650, 90 min. P07237. inhibition, % at 10 µM;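 active = mean inhibition across replicates of 30% or more, whatever share of single replicates reach that level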
ERp5 block – ERp5 (human) disulfide isomerase inhibition; 350,000 tested, 0.05% active; AID 651711; ERp5 insulin aggregation, absorbance 650 nm, 90 min; Q15084; inhibition, % at 9.99 µM;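 active = mean replicate inhibition above about 25%, with every replicate also reaching it, limit read from the data, passing the limit was not always enough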
ARNT TACC3 PPI – disruptors of human ARNT/TACC3 interaction; Q9Y6A5; AlphaScreen His-ARNT PAS-B/GST-TACC3 binding, luminescence; TACC3 fragment carries E629A point mutation; inhibition, % at 9.99 µM; 390,000 tested, 0.66% active; AID 623870;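 active = mean inhibition of replicates at least 50% and at least half of replicates each reaching 50%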;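 note: 0% = complete ARNT plus TACC3 wells and 100% = ARNT alone without TACC3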
PglD DTNB – PglD (C. jejuni) enzyme inhibition | purified PglD enzyme, DTNB colorimetric CoA detection | inhibition, % at 12.5 µM | 360,000 tested, 0.098% active; in the data active = inhibition above about 16%, passing the limit was not always enough
FGF22 binding – FGF22 (human) thermal shift binding. Q9HCT0. recombinant FGF22 thermal shift, SYPRO orange fluorescence; percent of sucrose octasulfate shift, DMSO zero. activity (Tm shift, normalised), % at 9.99 µM. 340,000 tested, 1.5% active. AID 651658;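 active = mean Tm shift, scaled 0 neutral to 100 positive control, at about 1.3% or above, every replicate too, limit read from the data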
Yeast UUG start – modulators of yeast start codon fidelity, primary screen, whole organism, S. cerevisiae, single point, plate reader; S. cerevisiae UUG-firefly luciferase reporter, luminescence/redox ratio; activity score, % at 18.7 µM; actives 0.13% (n = 350,000); AID 602363, 2012;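 active = replicate mean at a twofold rise or more, about +100% in these data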;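 also: firefly luciferase made from a UUG start codon reports start codon fidelity; reporter light over untreated wells divided by growth signal over untreated wells; some hits fall short of that in this replicate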
* = called active by the depositor. Compounds with a hit are over-represented: about 1.9% of the library has one in this group of screens.

For C[C@H]1CN([C@@H](C)CO)C(=O)Cc2cc(NC(=O)CCCCCC(=O)Nc3ccccc3N)ccc2O[C@H]1CN(C)S(=O)(=O)c1ccc(F)cc1 the results were ERp5 block 4, PglD DTNB 3, FGF22 binding 0 and Yeast UUG start -1.
`CCCCn1c(=O)c(CC(C)=O)nc2ccccc21` gave PDI inh 9, ERp5 block -1, PglD DTNB -6, FGF22 binding 44* and Yeast UUG start -15.
For CCCCCn1c(=O)c(C(=O)c2ccccc2)nc2ccccc21 the results were PDI inh -4, ERp5 block -1, ARNT TACC3 PPI 8, PglD DTNB 4 and Yeast UUG start -1.
C[C@@H]1CN([C@H](C)CO)S(=O)(=O)c2ccc(-c3cccc(C#N)c3)cc2O[C@H]1CN(C)C(=O)c1ccncc1 was read as ERp5 block 3, ARNT TACC3 PPI -2, PglD DTNB -1, FGF22 binding 0 and Yeast UUG start 1.
C[C@@H]1CCCCO[C@H](CN(C)Cc2ccc(C(F)(F)F)cc2)[C@@H](C)CN([C@H](C)CO)C(=O)c2cc(NC(=O)CCCCCC(=O)Nc3ccccc3N)ccc2O1 was read as ERp5 block 8 and FGF22 binding 0.
Screening Cc1nonc1CC(=O)N1CCCC(C(=O)c2cccc(C(F)(F)F)c2)C1 (stereo not given) returned PDI inh 5, ERp5 block 4, ARNT TACC3 PPI 2, PglD DTNB -1, FGF22 binding 46* and Yeast UUG start 8.
COc1ccc(C(=O)C2CCCN(C(=O)Cc3c(C)noc3C)C2)cc1OC (stereo not given) was read as PDI inh -3, ERp5 block -7, ARNT TACC3 PPI -4 and FGF22 binding 43*.
Screening O=C(c1ccc(C(F)(F)F)cc1)C1CCCN(C(=O)CCN2CCCO2)C1 (stereo not given) returned PDI inh -20, ERp5 block -5, PglD DTNB 2, FGF22 binding 44* and Yeast UUG start -15.
CCCNC(=O)N(C)C[C@H]1Oc2cc(C#CCN(C)C)ccc2S(=O)(=O)N([C@H](C)CO)C[C@H]1C was read as ERp5 block -8, ARNT TACC3 PPI 13, PglD DTNB 6, FGF22 binding 1 and Yeast UUG start 17.
Nc1c(N2CCOCC2)cc(Cl)c2nonc12 was read as PDI inh -4, ARNT TACC3 PPI 16, PglD DTNB -3 and Yeast UUG start -24.
Screening Nc1c(N2CCCC2)cc(Cl)c2nonc12 returned PDI inh -13, ARNT TACC3 PPI 37*, PglD DTNB 4 and Yeast UUG start 11.
Screening CO[C@H]1CN(C)C(=O)c2cc(NS(C)(=O)=O)ccc2OC[C@H](C)N(C(=O)CN(C)C)C[C@H]1C returned ERp5 block -5, ARNT TACC3 PPI 6, PglD DTNB 2, FGF22 binding 0 and Yeast UUG start -2.
For Cc1ccc(NC(=O)CN(C)C(=O)c2ccc(NC(=O)CC3SC(N4CCCC4)=NC3=O)cc2)cc1 (stereo not given) the results were PDI inh 8, ERp5 block -1, ARNT TACC3 PPI -6 and FGF22 binding 44*.
For C[C@H]1CN([C@@H](C)CO)C(=O)c2cc(C#CC3(O)CCCC3)cnc2O[C@@H]1CN(C)C(=O)C1CCOCC1 the results were ERp5 block 2, ARNT TACC3 PPI -3, PglD DTNB -3 and FGF22 binding 0.
CCOC(=O)COc1ccccc1/C=C1\NC(=O)NC1=O was read as PDI inh 4, ERp5 block 3, ARNT TACC3 PPI -3, PglD DTNB -3, FGF22 binding 0 and Yeast UUG start -11.
For COc1cccc(/C=C2/NC(=O)NC2=O)c1OCC(=O)Nc1ccccc1 the results were PDI inh -14, ERp5 block -4, ARNT TACC3 PPI -11, PglD DTNB -1, FGF22 binding 43* and Yeast UUG start -16.
`CCCN1CCN(C(=O)Cn2nc(CC)n3c(cc4sccc43)c2=O)CC1` gave ERp5 block -5, PglD DTNB -5, FGF22 binding 44* and Yeast UUG start -8.
For CCc1nn(CC(=O)NCCCN2CCOCC2)c(=O)c2cc3sccc3n12 the results were PDI inh -2, ERp5 block 4, ARNT TACC3 PPI -4, PglD DTNB 7, FGF22 binding 0 and Yeast UUG start -21.
Screening CCOC(=O)C1=C(CC)OC(N)=C(C#N)C1c1ccc(OC)c(OC)c1OC (stereo not given) returned PDI inh -1, ERp5 block 10, ARNT TACC3 PPI 15*, PglD DTNB 6, FGF22 binding 0 and Yeast UUG start -1.
`O=S(=O)(N[C@@H]1CCCN(Cc2cccc(OCCO)c2)C1)c1cc(Cl)ccc1Cl` gave ERp5 block 1, ARNT TACC3 PPI 1, PglD DTNB -2, FGF22 binding 0 and Yeast UUG start -2.
CCN(C(=O)COC(=O)c1ccccc1NC(=O)c1ccco1)C1CCS(=O)(=O)C1 (stereo not given) was read as PDI inh 2, ERp5 block 2, ARNT TACC3 PPI 0, PglD DTNB 9, FGF22 binding 43* and Yeast UUG start -1.
For CCN(C(=O)COC(=O)c1ccccc1OCc1ccc(Cl)cc1)C1CCS(=O)(=O)C1 (stereo not given) the results were PDI inh 7, ERp5 block -4, ARNT TACC3 PPI -4, PglD DTNB 0, FGF22 binding 43* and Yeast UUG start -1.
For CC(C)NC(=O)N(C)C[C@@H]1Oc2ccc(N(C)C)cc2C(=O)N([C@H](C)CO)C[C@@H]1C the results were ERp5 block -1, PglD DTNB 6, FGF22 binding 0 and Yeast UUG start -4.
Screening CCSc1nccc(-c2nn(-c3ccc(C)cc3)ccc2=O)n1 returned PDI inh -1, ARNT TACC3 PPI 24, PglD DTNB 6 and Yeast UUG start -16.
Screening CSc1nccc(-c2nn(-c3ccc(C)cc3)ccc2=O)n1 returned PDI inh 2, ARNT TACC3 PPI 58*, PglD DTNB 0 and Yeast UUG start -27.
Screening CO[C@@H]1CN(C)C(=O)c2ccc(NC(=O)Nc3ccccc3)cc2OC[C@@H](C)N(C(=O)Nc2c(C)noc2C)C[C@H]1C returned ERp5 block 9, ARNT TACC3 PPI 1, PglD DTNB 3, FGF22 binding 0 and Yeast UUG start 0.
Screening OC1(c2cccs2)CN(c2ccccc2)C2=[N+]1CCCC2 (stereo not given) returned PDI inh -3, ERp5 block -1, ARNT TACC3 PPI 1, PglD DTNB 2, FGF22 binding 43* and Yeast UUG start -6.
`COc1ccc(Cc2nnc3sc(SCC(=O)Nc4ccccc4)nn3c2=O)cc1OC` gave PDI inh 4, ERp5 block 1, ARNT TACC3 PPI 63*, PglD DTNB 4, FGF22 binding 0 and Yeast UUG start -9.

Taken from the listing for reference:
Screening CO[C@@H]1CN(C)C(=O)c2ccc(NC(=O)Nc3ccccc3)cc2OC[C@@H](C)N(C(=O)Nc2c(C)noc2C)C[C@H]1C returned ERp5 block 9, ARNT TACC3 PPI 1, PglD DTNB 3, FGF22 binding 0 and Yeast UUG start 0.
Screening OC1(c2cccs2)CN(c2ccccc2)C2=[N+]1CCCC2 (stereo not given) returned PDI inh -3, ERp5 block -1, ARNT TACC3 PPI 1, PglD DTNB 2, FGF22 binding 43* and Yeast UUG start -6.
`COc1ccc(Cc2nnc3sc(SCC(=O)Nc4ccccc4)nn3c2=O)cc1OC` gave PDI inh 4, ERp5 block 1, ARNT TACC3 PPI 63*, PglD DTNB 4, FGF22 binding 0 and Yeast UUG start -9.
